Data taken from patent US8816089B2, “Methods for controlling SR protein phosphorylation, and antiviral agents whose active ingredients comprise agents that control SR protein activity” (priority 2003, dated 2014).

The chains behind the UniProt entries cited, without tags or fusion partners. Where a name states a change or a piece, a line headed by the entry shows the natural chain unless it says otherwise.
UniProt P49761, whole entry, species assumed: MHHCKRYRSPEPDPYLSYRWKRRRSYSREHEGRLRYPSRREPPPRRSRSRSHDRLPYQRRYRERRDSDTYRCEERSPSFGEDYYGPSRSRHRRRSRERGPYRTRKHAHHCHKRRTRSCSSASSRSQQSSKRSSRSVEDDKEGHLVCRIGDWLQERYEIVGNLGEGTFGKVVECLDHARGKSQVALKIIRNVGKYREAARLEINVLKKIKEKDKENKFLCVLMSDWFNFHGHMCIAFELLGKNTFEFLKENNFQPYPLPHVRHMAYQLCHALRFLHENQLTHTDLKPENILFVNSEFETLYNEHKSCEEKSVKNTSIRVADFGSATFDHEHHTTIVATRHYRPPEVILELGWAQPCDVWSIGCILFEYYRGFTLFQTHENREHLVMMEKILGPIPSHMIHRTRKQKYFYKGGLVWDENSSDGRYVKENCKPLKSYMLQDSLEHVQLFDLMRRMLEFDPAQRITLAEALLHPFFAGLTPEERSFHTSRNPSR
UniProt P49760, whole entry, species assumed: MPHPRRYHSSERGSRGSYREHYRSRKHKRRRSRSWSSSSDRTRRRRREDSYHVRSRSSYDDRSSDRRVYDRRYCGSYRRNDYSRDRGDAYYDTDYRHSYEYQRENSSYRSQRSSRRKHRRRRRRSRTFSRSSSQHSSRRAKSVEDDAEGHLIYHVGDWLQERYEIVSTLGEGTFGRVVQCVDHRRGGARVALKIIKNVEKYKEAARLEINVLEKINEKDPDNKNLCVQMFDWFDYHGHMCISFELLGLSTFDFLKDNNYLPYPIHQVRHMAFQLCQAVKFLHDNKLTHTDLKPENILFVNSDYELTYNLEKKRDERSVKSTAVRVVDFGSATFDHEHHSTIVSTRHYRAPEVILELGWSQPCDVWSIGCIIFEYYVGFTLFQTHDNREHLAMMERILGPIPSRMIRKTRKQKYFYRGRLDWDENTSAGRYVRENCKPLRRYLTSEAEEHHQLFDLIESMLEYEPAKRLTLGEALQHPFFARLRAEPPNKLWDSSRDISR
UniProt P49759: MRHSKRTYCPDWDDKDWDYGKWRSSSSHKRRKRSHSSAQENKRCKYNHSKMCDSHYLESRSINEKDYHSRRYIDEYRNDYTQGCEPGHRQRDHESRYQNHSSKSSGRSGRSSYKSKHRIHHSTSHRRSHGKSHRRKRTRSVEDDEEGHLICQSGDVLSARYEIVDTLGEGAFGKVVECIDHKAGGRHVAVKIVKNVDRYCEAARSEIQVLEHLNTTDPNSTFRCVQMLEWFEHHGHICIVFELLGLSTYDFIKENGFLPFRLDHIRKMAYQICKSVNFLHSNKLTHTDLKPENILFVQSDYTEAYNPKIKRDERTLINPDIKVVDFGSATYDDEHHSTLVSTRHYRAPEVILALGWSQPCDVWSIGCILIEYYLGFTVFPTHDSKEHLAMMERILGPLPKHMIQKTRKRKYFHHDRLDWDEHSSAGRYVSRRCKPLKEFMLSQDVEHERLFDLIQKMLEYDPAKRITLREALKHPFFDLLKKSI
UniProt Q9HAZ1, whole entry, species assumed: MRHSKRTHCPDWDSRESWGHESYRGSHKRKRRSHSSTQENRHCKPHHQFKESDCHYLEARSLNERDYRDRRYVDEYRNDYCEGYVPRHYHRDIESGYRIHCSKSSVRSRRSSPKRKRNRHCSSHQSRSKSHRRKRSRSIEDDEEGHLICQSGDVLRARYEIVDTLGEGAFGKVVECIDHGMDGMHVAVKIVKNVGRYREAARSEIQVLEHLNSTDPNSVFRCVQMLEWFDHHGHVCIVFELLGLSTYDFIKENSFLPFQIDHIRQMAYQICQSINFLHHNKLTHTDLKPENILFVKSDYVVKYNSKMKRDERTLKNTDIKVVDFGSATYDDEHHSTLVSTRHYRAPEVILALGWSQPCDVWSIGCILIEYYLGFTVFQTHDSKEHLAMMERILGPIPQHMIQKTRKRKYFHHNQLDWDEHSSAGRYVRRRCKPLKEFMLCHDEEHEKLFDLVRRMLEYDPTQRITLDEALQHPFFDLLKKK

Tests used:
Conditions in all cases: final concentration of 10 μM
CLK3 = CLK3 (Homo sapiens, UniProt P49761)
CLK2 = CLK2 (Homo sapiens, UniProt P49760)
CLK1 = CLK1 (Homo sapiens, UniProt P49759)
CLK4 = CLK4 (Homo sapiens, UniProt Q9HAZ1)

O=C(Nc1cc(C(F)(F)F)ccc1N1CCCCC1)c1ccncc1 [Compound No. 340, N-[2-(1-piperidinyl)-5-(trifluoromethyl)phenyl]isonicotinamide]
did not exhibit an inhibitory effect: inhibitory effect on CLK3 (CLK3) | inhibitory effect on CLK2 (CLK2) | inhibitory effect on CLK1 (CLK1) | inhibitory effect on CLK4 (CLK4)
